# Target: T1, Prostaglandin G/H synthase 2 (Mus musculus, UniProt Q05769)
# T1 sequence (Q05769 whole entry): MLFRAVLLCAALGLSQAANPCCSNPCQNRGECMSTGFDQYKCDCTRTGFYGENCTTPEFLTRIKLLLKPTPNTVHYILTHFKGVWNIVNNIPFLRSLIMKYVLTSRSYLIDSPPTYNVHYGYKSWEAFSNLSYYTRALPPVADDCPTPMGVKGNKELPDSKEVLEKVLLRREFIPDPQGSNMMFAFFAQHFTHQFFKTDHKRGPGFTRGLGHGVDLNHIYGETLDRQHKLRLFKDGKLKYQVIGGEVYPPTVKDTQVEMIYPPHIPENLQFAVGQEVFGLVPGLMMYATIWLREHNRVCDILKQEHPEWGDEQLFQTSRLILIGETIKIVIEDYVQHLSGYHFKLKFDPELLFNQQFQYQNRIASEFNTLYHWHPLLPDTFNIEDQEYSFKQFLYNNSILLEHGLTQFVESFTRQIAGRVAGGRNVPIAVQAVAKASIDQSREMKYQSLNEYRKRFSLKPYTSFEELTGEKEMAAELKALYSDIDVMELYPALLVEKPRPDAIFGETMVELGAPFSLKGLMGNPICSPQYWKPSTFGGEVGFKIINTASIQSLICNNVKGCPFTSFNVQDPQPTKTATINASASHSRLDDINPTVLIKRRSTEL
# Experiment: Inhibitory activity against Prostaglandin G/H synthase 2 from freshly harvested mouse peritoneal macrophages
row,IC50 [nM],Compound
1,1480,CS(=O)(=O)c1ccc(-c2occ(Cl)c(=O)c2-c2ccc(F)cc2)cc1
2,936,CS(=O)(=O)c1ccc(-c2occ(Cl)c(=O)c2-c2ccc(Cl)cc2)cc1
